# Values quoted from earlier work in patent publication US20100179162A1, “Crystal forms of 4-[6-methoxy-7(3-piperidin-1-yl-propoxy) quinazoline-4yl) piperazine-1-carboxylic acid (4-isopropoxyphenyl)-amide” (Millennium Pharmaceuticals , Inc., priority 2005, published 2010).
# Tested on: human FLT-3/ITD-positive AML cancer cells
# Details: preclinical studies
compound,measurement,value
"COc1cc2c(N3CCN(C(=O)Nc4ccc(OC(C)C)cc4)CC3)ncnc2cc1OCCCN1CCCCC1 [the Compound, 4-[6-methoxy-7-(3-piperidin-1-yl-propoxy)quinazolin-4-yl]piperazine-1-carboxylic acid (4-isopropoxyphenyl)-amide]",killing of human FLT-3/ITD-positive AML cancer cells,selectively killed
